This passage reports activation results from PubChem BioAssay AID485349 (National Center for Advancing Translational Sciences (NCATS), 2010).

This is a selection; strong and weak results do not stand in their true shares. Some results for these compounds are left out of this collection, so the calls shown say nothing about other tests. Activity calls are given as the source filed them. Calls come from the whole dose curve; as a rule, active = well fitted activation curve with a large enough effect; inconclusive = small, poorly fitted or top-dose-only effect; inactive = no such curve, though single readings can be large or run the other way.

The experiment in a line: qHTS Assay for Identifying a Potential Treatment of Ataxia-Telangiectasia. Note: % of control where 0% means no effect; nearly all actives have a fitted effect of over 45% in size. Particulars: […] A-T fibroblasts, KAP-1 phosphorylation AlphaLISA, neocarzinostatin DNA damage 30 min before lysis; at 57.5 µM (top of the series). From the text: NIH Chemical Genomics Center [NCGC] NIH Molecular Libraries Probe Centers Network [MLPCN] MLPCN Grant: MH089030-01 Assay Submitter (PI): Wei Zheng and Yosef Shiloh Ataxia-telangiectasia (A-T) is a devastating and progressive disease for which, there is no cure. Although A-T is a multisystem disease, it is stereotyped characterized by its neurological symptoms such as truncal ataxia, due to cerebellar cortical degeneration of the Purkinje and granule cells. Other symptoms of A-T are telangiectasias (dilated blood vessels), primary immunodeficiency, marked sensitivity to ionizing radiation (IR), chromosomal instability and predisposition to cancer. The underlying genetic cause of A-T is null mutations in the ATM (A-T mutated) gene. ATM is a nuclear serine/threonine kinase that functions as a master regulator of the cellular responses to double strand breaks (DSBs) in the DNA. Upon activation by DSBs, ATM phosphorylates a plethora of down stream targets, including KAP-1 on […]. KAP-1 phosphorylation occurs shortly in response to DSBs and mediates global chromatin relaxation, which facilitates DSB repair. To screen for small molecules that will compensate for the loss of ATM in cells derived from A-T patients, we monitored KAP-1 phosphorylation as a readout for ATM-like activity using an AlphaLISA assay.
qHTS Assay Protocol: Step,Parameter,Value,Description 1. Cell Plating, 3 ul, 500 cells/well in OPTI-MEM, 1% FBS, 1% Pen/Strep 2. Incubation, 16-24 hr, 37C, 5% CO2, 95% humidity 3. Library compounds, 23 nl, 76.7 - 0.61uM dilution series final concentration 4. Incubation, 60 min, 37C, 5% CO2, 95% humidity 5. Reagent, 1 ul, 1600 ng/ml NCS in PBS + 0.05% BSA + 0.005% Tween 20 6. Incubation, 30 min, 37C, 5% CO2, 95% humidity 7. Reagent, 1 ul, Premixed detection reagents and lysis buffer 8. Reagent, 1 ul, 0.6% Antifoam A 9. Incubation, 6 hr, 25C, 95% humidity 10. Readout, EnVision, EnVision plate reader. AlphaScreen 1536-well protocol Cells were plated using medium-binding white solid-bottom tissue culture treated Kalypsys plates. Multidrop dispense of 3 uL of […] (hTERT immortalized A-T patient fibroblast cells). Detection reagent and lysis buffer was 3.75nM Rab-a-pKAP1 antibody bound to 75 ng/ul AlphaScreen SA donor bead, 3.75 nM Biot-M-a-KAP1 antibody bound to AlphaLISA protein A acceptor bead, 0.5x protease inhibitor cocktail and 0.25x PerkinElmer lysis buffer. EnVision protocol for 1536-well AlphaScreen read (30ms excitation, 100ms read), about 10 min/plate.
(Quantitative high-throughput screening tests each substance at several concentrations.)
Turning to `COc1ccc(Br)c(C(=O)NCC2(N3CCCCC3)CCCCC2)c1`, the activation was inactive: -11.3%.

For `CN(C)c1cccc(C(=O)NCC2(N(C)C)CCCCC2)c1`, the activation is inactive: 2.56%.

Regarding `CC(C)Oc1ccc(C(=O)NCC2(N(C)C)CCCCC2)cc1`, the activation was inactive: 29.4%.

For the molecule `O=C(OC1CN2CCC1CC2)C(CO)(c1ccccc1)c1ccccc1` (centres undefined), the activation was inactive: 5.37%.

As to `COc1ccc(Cl)cc1C(=O)NCC1(N(C)C)CCCCC1`, the activation is inactive: 3.35%.

For the molecule `COc1cccc(C(=O)NCC2(N3CCCCC3)CCCCC2)c1`, the activation is inactive: 4.27%.

Turning to `O=C(NCC1(N2CCCCC2)CCCCC1)c1cccc(Cl)c1`, the activation was inactive: 1.19%.

`CN(C)C1(CNC(=O)c2ccc(Br)cc2)CCCCC1`: the activation was inactive: -2.3%.

As for `COc1cc(C(=O)NCC2(N(C)C)CCCCC2)c([N+](=O)[O-])cc1OC`, the activation was inactive: 20%.

For the molecule `O=C(NCC1(N2CCCCC2)CCCCC1)c1cc(F)c(F)cc1Cl`, the activation was inactive: 2.64%.

In the case of `C=CCN1CCN(CCOC(=O)C(O)(c2ccccc2)c2ccccc2)CC1`, the activation was inactive: -4.53%.

On to `O=C(NCC1(N2CCCCC2)CCCCC1)c1cccc(Br)c1`, for which the activation was inactive: -0.584%.

With `CCN1CCCC(OC(=O)C2(O)c3ccccc3C=Cc3ccccc32)C1` (centres undefined), the activation was inactive: 19.8%.

In the case of `Cc1cc(C(=O)NCC2(N3CCCCC3)CCCCC2)ccc1[N+](=O)[O-]`, the activation is inactive: 2.92%.

Take `COc1ccc(C(=O)NCC2(N(C)C)CCCCC2)cc1`: the activation is inactive: 5.43%.

With `CN(C)c1ccc(C(=O)NCC2(N(C)C)CCCCC2)cc1`, the activation was inactive: 11%.

For the molecule `CN(C)C1CCCC1OC(=O)C(O)(c1ccccc1)c1ccccc1` (centres undefined), the activation is inactive: -1.66%.

Turning to `Cc1ccccc1C(=O)NCC1(N2CCCCC2)CCCCC1`, the activation is inactive: -0.244%.

With `CC(C)N1C(=O)CC2(CCN(CCOC(=O)C(O)(c3ccccc3)c3ccccc3)CC2)C1=O`, the activation was inactive: -3.79%.

As to `COc1cc(SC)ccc1C(=O)NCC1(N(C)C)CCCCC1`, the activation is inactive: -16.7%.

Take `CCN(CC)CC(C)C(C)OC(=O)C(O)(c1ccccc1)c1ccccc1` (centres undefined): the activation was inactive: 11.5%.

Take `Cc1ccc(C(=O)NCC2(N3CCCCC3)CCCCC2)cc1`: the activation was inactive: -4.6%.

Turning to `O=C(NCC1(N2CCCCC2)CCCCC1)c1cc([N+](=O)[O-])ccc1Cl`, the activation is inactive: -3.3%.

Take `CN1[C@@H]2CC[C@H]1CC(OC(=O)C(O)(c1ccccc1)c1ccccc1)C2` (some centres undefined): the activation is inactive: -2.6%.
